Measured values: patent publication US6610270B1, “In vivo determination of metabolic function for use in therapy management” (Xanthus Life Sciences, Inc., priority 1998, dated 2003)

Assays:
[1] = oral ingestion, in two hours
[2] = system: α-ketoacid decarboxylase (KAD); settings: n = 3

## N-acetyl-ABU [Aminobutyrate Metaprobe]
[1]
  cleared from the system: more than 70%
[2]; 2 mg/kg oral, fasting adult male
  Metabolic Response Index (MRI), BASAL: 145 +/− 24 (n = 3) MicroMol/kg/hr.
[2]; after 100 mg/kg methionine
  Metabolic Response Index (MRI), MET+: 105 +/− 26 (n = 3) MicroMol/kg/hr.
[2]
  LI, load tolerance index (BASAL minus MET+): 40 +/− 9 (n = 3) MicroMol/kg/hr.
